Among the data in PubChem BioAssay (NCI) are GI50 and TGI values, retold here.

The test has as its system MDA-MB-468 breast. Nature of the test: inhibition of tumour cell growth, NCI panel, 48 h.

Molecules are shown by their SMILES.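 Grown in 96-well plates, cells were treated for 48 hours with each compound at five concentrations. Insufficient inhibition: endpoint recorded as highest concentration tested. GI50 is the concentration that inhibits growth by half. The concentration for full growth arrest is given as TGI.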

For the molecule `O=C(Cl)c1c([N+](=O)[O-])cc([N+](=O)[O-])cc1[N+](=O)[O-]`, the GI50 is 1.73 µM and the TGI was determined as 3.6 µM.
